Values quoted from earlier work, collected in PMC3561363, “A Novel Retro-Inverso Peptide Inhibitor Reduces Amyloid Deposition, Oxidation and Inflammation and Stimulates Neurogenesis in the APPswe/PS1ΔE9 Mouse Model of Alzheimer’s Disease” (PLoS ONE, 2013).

System: AD patients
Settings: results late 2012; cited from earlier work

For “Bapineuzumab: Bapineuzumab (Johnson and Johnson)”, the “effect in AD patients” value is listed as “no significant effect on AD patients”.
